Molecular target: T1, mouse endothelin receptor type A (mETA), P9 fusion, purified and solubilised in sarkosyl (mouse, UniProt Q61614)
T1 construct: mouse endothelin receptor type A, gene synthesised by GenScript (NCBI Gene ID 13617); also called mouse ETA; source: E. coli BL21(DE3) with pP9-mETA, membrane fraction dissolved in 0.5% sarkosyl, purified (Ni-NTA, PD-10)
Experiment: ELISA; Gαi3 (4 μg/ml in 0.05 M Na2CO3 pH 9.6) coated, hETA or mETA (4 μg/ml, in 0.5% sarkosyl) captured, AG8 IgG serially diluted in PBS pH 7.4 added, washes in PBST, detection with goat anti-human IgG (H+L)-HRP; apparent affinities
Conditions: both partners purified

By UniProt entry, the sequences of proteins in these tests, tags left out. Residues count along the entry.
UniProt Q61614, 21-427: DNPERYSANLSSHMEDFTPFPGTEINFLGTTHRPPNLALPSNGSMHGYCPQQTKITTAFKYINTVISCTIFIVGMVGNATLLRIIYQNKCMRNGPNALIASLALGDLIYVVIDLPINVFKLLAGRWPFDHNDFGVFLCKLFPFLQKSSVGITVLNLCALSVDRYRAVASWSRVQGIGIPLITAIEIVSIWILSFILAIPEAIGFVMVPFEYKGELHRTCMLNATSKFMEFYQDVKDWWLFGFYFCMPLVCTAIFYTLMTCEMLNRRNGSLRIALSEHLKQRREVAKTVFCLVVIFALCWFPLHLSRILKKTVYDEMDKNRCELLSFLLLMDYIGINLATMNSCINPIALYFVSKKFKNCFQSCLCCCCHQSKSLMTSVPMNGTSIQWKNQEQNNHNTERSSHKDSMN

B1: AG8 IgG (full-length human IgG) (antibody, V domains shown)
VH: EVQLVESGAEVRKPGASVKVSCKASGYTFTSSDINWIRQATGQGLEWMGYMNPKNGNTDYAQKFQGRISMTRDSSISTAYMELSSLRSEDTAVYYCAKDRYGSGTYGFGMDVWGPGTLVTVSS
VL: DIVMTQSPSAMSASVGDRVSITCRASQGINNYLAWFQQKPGKVPKRLMDVGSILQSGIPSRFRGRGSGTQFTLTISSLQAEDSGTYFCLQHNTYPLTFGPGTKVEIK
binding result: binds
